{
  "sequences": {"note": "Chains of the proteins cited; added tags and fusions are not shown. Lines headed by an entry give the natural chain unless they say otherwise; changes in a name come on top.", "UniProt P35414": "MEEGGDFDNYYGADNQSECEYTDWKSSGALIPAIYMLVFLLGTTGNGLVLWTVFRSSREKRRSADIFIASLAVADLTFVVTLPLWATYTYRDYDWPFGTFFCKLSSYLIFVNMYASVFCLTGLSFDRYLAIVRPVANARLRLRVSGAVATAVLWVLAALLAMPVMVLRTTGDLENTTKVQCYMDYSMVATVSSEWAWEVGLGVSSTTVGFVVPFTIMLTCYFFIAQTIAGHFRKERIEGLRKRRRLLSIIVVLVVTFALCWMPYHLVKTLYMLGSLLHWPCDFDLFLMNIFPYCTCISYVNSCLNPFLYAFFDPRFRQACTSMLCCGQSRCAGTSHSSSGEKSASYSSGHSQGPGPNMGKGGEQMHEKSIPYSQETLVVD", "UniProt Q9ULZ1": "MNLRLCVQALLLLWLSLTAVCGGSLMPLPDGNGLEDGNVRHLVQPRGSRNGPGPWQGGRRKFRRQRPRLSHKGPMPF"},
  "source": "patent US8673848",
  "about": "(Novartis, dated 2014)",
  "target": "human APJ receptor (hAPJ) (human) (UniProt P35414)",
  "assay": "cell-based or functional assay",
  "data": [
    {"substance": "Pyr1-apelin-13 (Comparative Example) (from UniProt Q9ULZ1 65-77) (peptide)", "values": [
      {"measurement": "hAPJ Ca2+ Flux EC50", "result": 1.79, "unit": "nM"}
    ]}
  ]
}
